According to US8361445B2, “Formulations for treating and/or preventing black-line stains” (priority 2010, dated 2013):

Settings: two patients; solution of 250 mg tetracycline capsules in 100 ml water, topical oral, twice a day for a week

CN(C)[C@@H]1C(O)=C(C(N)=O)C(=O)[C@@]2(O)C(O)=C3C(=O)c4c(O)cccc4[C@@](C)(O)[C@H]3C[C@@H]12 [tetracycline]
adverse effects: neither one of the patients experienced any adverse effects
